# From PubChem BioAssay (NCI)
#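 48-hour exposure; five concentrations; linearly interpolated endpoints. Here, GI50 denotes the concentration required for 50% inhibition of growth. TGI denotes the concentration required for complete inhibition of growth.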
# Tests used:
# Assay in all cases: growth of human tumour cells (NCI), 48 h
# SNB-78 CNS = system: SNB-78 CNS
# UACC-62 melanoma = system: UACC-62 melanoma
# OVCAR-8 ovarian = system: OVCAR-8 ovarian
# NCI-H522 lung = system: NCI-H522 lung
# NCI-H322M lung = system: NCI-H322M lung
# HOP-62 NSCLC = system: HOP-62 NSCLC
# MDA-MB-435 = system: MDA-MB-435
# BT-549 breast = system: BT-549 breast
# XF 498 CNS = system: XF 498 CNS
# HS 578T breast = system: HS 578T breast
# PC-3 prostate = system: PC-3 prostate
# A498 renal = system: A498 renal
# SN12C renal = system: SN12C renal
# KM12 colon = system: KM12 colon
# SF-295 CNS = system: SF-295 CNS
# SK-MEL-2 melanoma = system: SK-MEL-2 melanoma
# RPMI-8226 leukemia = system: RPMI-8226 leukemia
# SK-MEL-5 melanoma = system: SK-MEL-5 melanoma
# K-562 leukemia = system: K-562 leukemia
# MOLT-4 leukemia = system: MOLT-4 leukemia
# DLD-1 colon = system: DLD-1 colon
# M14 melanoma = system: M14 melanoma
# OVCAR-4 ovarian = system: OVCAR-4 ovarian
# EKVX NSCLC = system: EKVX NSCLC
# OVCAR-5 ovarian = system: OVCAR-5 ovarian
# HL-60(TB) leukemia = system: HL-60(TB) leukemia
# OVCAR-3 ovarian = system: OVCAR-3 ovarian
# MDA-MB-231 breast = system: MDA-MB-231 breast
# CAKI-1 renal = system: CAKI-1 renal
# HCT-15 colon = system: HCT-15 colon
# DU-145 prostate = system: DU-145 prostate
# M19-MEL melanoma = system: M19-MEL melanoma
# NCI-H23 lung = system: NCI-H23 lung
# COLO 205 colon = system: COLO 205 colon
# HT29 colon = system: HT29 colon
# SR leukemia = system: SR leukemia
# KM20L2 colon = system: KM20L2 colon
# LXFL 529 NSCLC = system: LXFL 529 NSCLC
# U251 CNS = system: U251 CNS
# MDA-N = system: MDA-N
# ACHN renal = system: ACHN renal
# SK-MEL-28 melanoma = system: SK-MEL-28 melanoma
# HOP-18 NSCLC = system: HOP-18 NSCLC
# SF-268 CNS = system: SF-268 CNS
# SNB-19 CNS = system: SNB-19 CNS
# RXF 393 renal = system: RXF 393 renal
# IGROV1 ovarian = system: IGROV1 ovarian
# UO-31 renal = system: UO-31 renal
# 786-0 renal = system: 786-0 renal
# UACC-257 melanoma = system: UACC-257 melanoma
# HCT-116 colon = system: HCT-116 colon
# MALME-3M melanoma = system: MALME-3M melanoma
# NCI-H460 lung = system: NCI-H460 lung
# NCI/ADR-RES ovarian = system: NCI/ADR-RES ovarian
# CCRF-CEM leukemia = system: CCRF-CEM leukemia
# LOX IMVI melanoma = system: LOX IMVI melanoma
# HOP-92 NSCLC = system: HOP-92 NSCLC
# TK-10 renal = system: TK-10 renal
# T-47D breast = system: T-47D breast
# SW-620 colon = system: SW-620 colon
# NCI-H226 lung = system: NCI-H226 lung
# HCC-2998 colon = system: HCC-2998 colon
# A549 NSCLC = system: A549 NSCLC
# SK-OV-3 ovarian = system: SK-OV-3 ovarian
# SF-539 CNS = system: SF-539 CNS
# MCF7 breast = system: MCF7 breast
# SNB-75 CNS = system: SNB-75 CNS
compound,measurement,setting,value
O=C(O)CS[As]1SCCS1,GI50,SNB-78 CNS,> 100 µM
same,TGI,SNB-78 CNS,> 100 µM
same,GI50,UACC-62 melanoma,73.3 µM
same,TGI,UACC-62 melanoma,> 100 µM
same,GI50,OVCAR-8 ovarian,61.3 µM
same,TGI,OVCAR-8 ovarian,> 100 µM
same,GI50,NCI-H522 lung,50 µM
same,TGI,NCI-H522 lung,> 100 µM
same,GI50,NCI-H322M lung,3.28 µM
same,TGI,NCI-H322M lung,> 100 µM
same,GI50,HOP-62 NSCLC,51.3 µM
same,TGI,HOP-62 NSCLC,94.3 µM
same,GI50,MDA-MB-435,22.4 µM
same,TGI,MDA-MB-435,59 µM
same,GI50,BT-549 breast,58.6 µM
same,TGI,BT-549 breast,> 100 µM
same,GI50,XF 498 CNS,> 100 µM
same,TGI,XF 498 CNS,> 100 µM
same,GI50,HS 578T breast,28 µM
same,TGI,HS 578T breast,> 100 µM
same,GI50,PC-3 prostate,34 µM
same,TGI,PC-3 prostate,> 100 µM
same,GI50,A498 renal,92.6 µM
same,TGI,A498 renal,> 100 µM
same,GI50,SN12C renal,81.6 µM
same,TGI,SN12C renal,> 100 µM
same,GI50,KM12 colon,34.2 µM
same,TGI,KM12 colon,82.1 µM
same,GI50,SF-295 CNS,56.3 µM
same,TGI,SF-295 CNS,> 100 µM
same,GI50,SK-MEL-2 melanoma,43.7 µM
same,TGI,SK-MEL-2 melanoma,85.5 µM
same,GI50,RPMI-8226 leukemia,57 µM
same,TGI,RPMI-8226 leukemia,> 100 µM
same,GI50,SK-MEL-5 melanoma,38.9 µM
same,TGI,SK-MEL-5 melanoma,> 100 µM
same,GI50,K-562 leukemia,61.4 µM
same,TGI,K-562 leukemia,> 100 µM
same,GI50,MOLT-4 leukemia,51 µM
same,TGI,MOLT-4 leukemia,> 100 µM
same,GI50,DLD-1 colon,> 100 µM
same,TGI,DLD-1 colon,> 100 µM
same,GI50,M14 melanoma,67.3 µM
same,TGI,M14 melanoma,> 100 µM
same,GI50,OVCAR-4 ovarian,> 100 µM
same,TGI,OVCAR-4 ovarian,> 100 µM
same,GI50,EKVX NSCLC,50.7 µM
same,TGI,EKVX NSCLC,> 100 µM
same,GI50,OVCAR-5 ovarian,58.5 µM
same,TGI,OVCAR-5 ovarian,> 100 µM
same,GI50,HL-60(TB) leukemia,63.6 µM
same,TGI,HL-60(TB) leukemia,> 100 µM
same,GI50,OVCAR-3 ovarian,52 µM
same,TGI,OVCAR-3 ovarian,> 100 µM
same,GI50,MDA-MB-231 breast,95.7 µM
same,TGI,MDA-MB-231 breast,> 100 µM
same,GI50,CAKI-1 renal,23.2 µM
same,TGI,CAKI-1 renal,> 100 µM
same,GI50,HCT-15 colon,39.9 µM
same,TGI,HCT-15 colon,> 100 µM
same,GI50,DU-145 prostate,73.3 µM
same,TGI,DU-145 prostate,> 100 µM
same,GI50,M19-MEL melanoma,44.4 µM
same,TGI,M19-MEL melanoma,> 100 µM
same,GI50,NCI-H23 lung,72.7 µM
same,TGI,NCI-H23 lung,> 100 µM
same,GI50,COLO 205 colon,> 100 µM
same,TGI,COLO 205 colon,> 100 µM
same,GI50,HT29 colon,59.4 µM
same,TGI,HT29 colon,> 100 µM
same,GI50,SR leukemia,19.9 µM
same,TGI,SR leukemia,56.3 µM
same,GI50,KM20L2 colon,> 100 µM
same,TGI,KM20L2 colon,> 100 µM
same,GI50,LXFL 529 NSCLC,> 100 µM
same,TGI,LXFL 529 NSCLC,> 100 µM
same,GI50,U251 CNS,59.7 µM
same,TGI,U251 CNS,> 100 µM
same,GI50,MDA-N,28.4 µM
same,TGI,MDA-N,> 100 µM
same,GI50,ACHN renal,87.8 µM
same,TGI,ACHN renal,> 100 µM
same,GI50,SK-MEL-28 melanoma,88.2 µM
same,TGI,SK-MEL-28 melanoma,> 100 µM
same,GI50,HOP-18 NSCLC,> 100 µM
same,TGI,HOP-18 NSCLC,> 100 µM
same,GI50,SF-268 CNS,44 µM
same,TGI,SF-268 CNS,> 100 µM
same,GI50,SNB-19 CNS,84.8 µM
same,TGI,SNB-19 CNS,> 100 µM
same,GI50,RXF 393 renal,81.5 µM
same,TGI,RXF 393 renal,> 100 µM
same,GI50,IGROV1 ovarian,59.1 µM
same,TGI,IGROV1 ovarian,> 100 µM
same,GI50,UO-31 renal,> 100 µM
same,TGI,UO-31 renal,> 100 µM
same,GI50,786-0 renal,17.3 µM
same,TGI,786-0 renal,> 100 µM
same,GI50,UACC-257 melanoma,94.6 µM
same,TGI,UACC-257 melanoma,> 100 µM
same,GI50,HCT-116 colon,16 µM
same,TGI,HCT-116 colon,> 100 µM
same,GI50,MALME-3M melanoma,56 µM
same,TGI,MALME-3M melanoma,> 100 µM
same,GI50,NCI-H460 lung,57.4 µM
same,TGI,NCI-H460 lung,> 100 µM
same,GI50,NCI/ADR-RES ovarian,29.7 µM
same,TGI,NCI/ADR-RES ovarian,93.2 µM
same,GI50,CCRF-CEM leukemia,66.6 µM
same,TGI,CCRF-CEM leukemia,> 100 µM
same,GI50,LOX IMVI melanoma,12.5 µM
same,TGI,LOX IMVI melanoma,> 100 µM
same,GI50,HOP-92 NSCLC,> 100 µM
same,TGI,HOP-92 NSCLC,> 100 µM
same,GI50,TK-10 renal,> 100 µM
same,TGI,TK-10 renal,> 100 µM
same,GI50,T-47D breast,> 100 µM
same,TGI,T-47D breast,> 100 µM
same,GI50,SW-620 colon,97.3 µM
same,TGI,SW-620 colon,> 100 µM
same,GI50,NCI-H226 lung,57.4 µM
same,TGI,NCI-H226 lung,> 100 µM
same,GI50,HCC-2998 colon,67.5 µM
same,TGI,HCC-2998 colon,> 100 µM
same,GI50,A549 NSCLC,55.9 µM
same,TGI,A549 NSCLC,> 100 µM
same,GI50,SK-OV-3 ovarian,57.4 µM
same,TGI,SK-OV-3 ovarian,> 100 µM
same,GI50,SF-539 CNS,34.8 µM
same,TGI,SF-539 CNS,69.9 µM
same,GI50,MCF7 breast,44.8 µM
same,TGI,MCF7 breast,> 100 µM
same,GI50,SNB-75 CNS,22.2 µM
same,TGI,SNB-75 CNS,> 100 µM
